From publication PMC4902571 come the findings set out here.

This experiment addresses EGFR transmembrane helix fused to mCherry at the N-terminus and to EGFP at the C-terminus (human). The experiment is described as follows: single-molecule stepwise photobleaching (TIRF microscopy); EGFP fusions on the membrane of live Xenopus oocytes, without EGF; ~1 to ~5 molecules per um^2; room temperature; 20 Hz; 3% two-step baseline (Claudin-16) subtracted.

In the case of “EGFR transmembrane helix fused to mCherry at the N-terminus and to EGFP at the C-terminus (domain or fragment)”, the extent of dimerization (fraction of two-step photobleaching events) worked out at 13% and the stoichiometry N (in general, a count of units in the complex or per binding partner) turned out to be 2.
